Laboratory results reported in PMC4239318, “Quantitative investigation of the affinity of human respiratory syncytial virus phosphoprotein C-terminus binding to nucleocapsid protein” (Virology Journal, 2014).

Sequences of proteins named here, by UniProt entry; tags and fusion partners are left off. Residues count along the entry.
UniProt P03418, 13-391: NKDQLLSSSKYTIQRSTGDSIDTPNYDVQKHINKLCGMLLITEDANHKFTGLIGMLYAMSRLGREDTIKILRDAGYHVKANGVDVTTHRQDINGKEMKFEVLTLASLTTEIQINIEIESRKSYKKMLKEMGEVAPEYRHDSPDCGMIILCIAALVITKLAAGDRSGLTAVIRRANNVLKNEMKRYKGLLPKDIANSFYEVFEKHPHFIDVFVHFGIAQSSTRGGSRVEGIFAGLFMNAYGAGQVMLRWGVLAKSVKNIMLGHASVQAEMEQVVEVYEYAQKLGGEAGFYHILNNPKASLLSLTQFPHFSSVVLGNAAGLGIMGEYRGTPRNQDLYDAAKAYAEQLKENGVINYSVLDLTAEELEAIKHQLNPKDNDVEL

Biological target: RSV-N(13-391) (Human respiratory syncytial virus A, UniProt P03418)
Conditions: 200 μM peptide, highest concentration tested
Description: Samples of 10 μl containing peptides and proteins as indicated were prepared in buffer composed of 10 mM Tris-HCl (pH 7.5) +0.01% Brij-35 detergent (Pierce Surfact-Amps-35, Thermo Fisher Scientific, Rockford, IL) in low-volume 384-well black polystyrene assay plates (Thermo Fisher Scientific, Hudson, NH). After a 5 minute incubation, fluorescence anisotropy was measured with a Pherastar plate reader (BMG Labtech, Cary, NC) equipped with a filter module having a 485 nm excitation filter and 520 nm emission filters with polarizers. The focal height was 10.8 mm. Each measurement used 50 flashes. The parallel and perpendicular detector gains were set to 392 and 366 in order to produce an anisotropy of about 0.03 in the absence of binding. […]
All fluorescence anisotropy measurements were performed at ambient temperature, approximately 21°C.
For the BP5 competition assay, the P protein storage buffer was replaced by repeated concentration using centrifugal ultrafiltration with a Millipore Ultrafree 0.5 unit with Biomax-10 membrane (EMD Millipore, Billerica, MA) and dilution with 10 mM Tris-HCl (pH 7.5). The protein concentration was determined by the method of Bradford using bovine serum albumin as the standard. […]

SMILES: CC(C)C[C@H](NC(=O)[C@H](CO)NC(=O)[C@H](CC(C)C)NC(=O)[C@H](CC(=O)O)NC(=O)[C@H](CC(N)=O)NC(=O)[C@H](CC(=O)O)NC(=O)[C@H](CO)NC(=O)[C@@H](N)CC(=O)O)C(=O)N[C@@H](CCC(=O)O)C(=O)N[C@@H](CC(=O)O)C(=O)N[C@@H](C)C(=O)O
- Inhibition of BP5 binding to N(13-391): about 25%
